# Data published in PubChem BioAssay AID624291 (National Center for Advancing Translational Sciences (NCATS), 2012).
# This is a selection; strong and weak results do not stand in their true shares. Results filed as inconclusive are left out. The source made the active and inactive calls. The call rests on the fitted dose curve; in most records, active means well fitted activation curve with a large enough effect; inconclusive means small, poorly fitted or top-dose-only effect; inactive means no such curve, though single readings can be large or run the other way.
# Assay: qHTS for Activators of Integrin-Mediated Alleviation for Muscular Dystrophy;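 further: 100% = response of the positive control SU9516; nearly all actives have a fitted effect of over 60% in size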
# Details: alpha7betagal myoblasts, beta-gal FDG fluorescence, 48 h; at 38.3 µM (top of the series)
row,SMILES,activation
1,CCCOc1ccc(NP(C)(=O)Oc2ccc(Cl)cc2)cc1 (stereo unspecified),inactive: -5.45%
2,CP(=O)(Nc1ccc(SC(F)(F)F)cc1)Oc1ccccc1 (stereo unspecified),inactive: 1.01%
3,CN1CCCCC1COC(=O)C1(O)c2ccccc2CCc2ccccc21 (stereo unspecified),inactive: 11%
4,COc1ccccc1OP(C)(=O)Nc1c(C)cccc1C (stereo unspecified),inactive: -10.2%
5,O=[N+]([O-])c1cc([N+](=O)[O-])c(Nc2nnnn2CCO)c([N+](=O)[O-])c1,inactive: 5.99%
6,Cc1nc2ccc3ccccc3c2s1.O=[N+]([O-])c1cc([N+](=O)[O-])c(O)c([N+](=O)[O-])c1,inactive: 16.4%
7,O=[N+]([O-])c1cc([N+](=O)[O-])c(-c2cnn(-c3ccccc3)c2)c([N+](=O)[O-])c1,inactive: 6.53%
8,O=[N+]([O-])c1cc([N+](=O)[O-])c(-n2nnc3ccccc32)c([N+](=O)[O-])c1,inactive: 5.4%
9,Cc1cc(C)cc(OP(C)(=O)Nc2ccccn2)c1 (stereo unspecified),inactive: -21.4%
10,CP(=O)(Nc1cccc(Br)c1)Oc1ccccc1 (stereo unspecified),inactive: 25.9%
11,Cc1ccc(C)c(NP(C)(=O)Oc2ccccc2)c1 (stereo unspecified),inactive: 26.4%
12,Cc1cc(C)cc(OP(C)(=O)Nc2ccc(C)cc2C)c1 (stereo unspecified),inactive: 13.3%
13,CCOC(=O)c1ccc(NP(C)(=O)Oc2cc(C)cc(C)c2)cc1 (stereo unspecified),inactive: 14.5%
14,COc1ccccc1OP(C)(=O)Nc1cccc(Br)c1 (stereo unspecified),inactive: -5.43%
15,CC1=NCCc2c1[nH]c1ccccc21.O=[N+]([O-])c1cc([N+](=O)[O-])c(O)c([N+](=O)[O-])c1,inactive: 12.3%
16,COc1ccc(OP(C)(=O)Nc2cccc(F)c2)cc1 (stereo unspecified),inactive: 22.4%
17,COc1ccccc1OP(C)(=O)Nc1cc(Cl)ccc1C (stereo unspecified),inactive: 4.13%
18,Cc1cc(C)cc(OP(C)(N)=O)c1 (stereo unspecified),inactive: -12.4%
19,CCOC(=O)c1ccc(NP(C)(=O)Oc2ccccc2)cc1 (stereo unspecified),inactive: 12%
20,Cc1ccc(NP(C)(=O)Oc2ccccc2)c(C)c1 (stereo unspecified),inactive: 24.5%
21,COc1ccccc1OP(C)(=O)Nc1ccc(C)cc1 (stereo unspecified),inactive: 7.75%
22,Cc1cccc(C)c1OP(C)(N)=O (stereo unspecified),inactive: 6.97%
23,CC(C)(C)c1ccc(OP(C)(=O)Nc2ccc(SC(F)(F)F)cc2)cc1 (stereo unspecified),inactive: -24.3%
24,O=[N+]([O-])c1ccc2c(c1)C=Nc1ccccc1O2,inactive: -49.2%
25,O=[N+]([O-])c1cc([N+](=O)[O-])c(Nc2cccnc2)c([N+](=O)[O-])c1,inactive: -12.6%
26,CCN(CC)CCCOC(=O)C(O)(c1ccccc1)c1ccccc1,inactive: -8.4%
